# In the library only some 0.34% were active in any assay of this set; here they are far more common.
# PDI turbidity: inhibitors of human PDI, primary screen, biochemical, turbidity, single point, plate reader | inhibition, % at 10 µM | Protein disulfide-isomerase (Homo sapiens), P07237 | PDI insulin aggregation turbidity, A650, 90 min | AID 588391, 2011 | 350,000 tested, 0.052% active;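 active = mean inhibition across replicates of 30% or more, whatever share of single replicates reach that level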
# Yeast UUG start-1: modulators of start codon recognition fidelity in yeast; S. cerevisiae UUG-firefly luciferase reporter, luminescence/redox ratio; AID 602363; 350,000 tested, 0.13% active; activity score, % at 18.7 µM;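 active = replicate mean at a twofold rise or more, about +100% in these data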;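 also: firefly luciferase made from a UUG start codon reports start codon fidelity; reporter light over untreated wells divided by growth signal over untreated wells; some hits fall short of that in this replicate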
# Cneo AK release: Cryptococcus neoformans cell lysis inducers, primary screen, AK release luminescence, single concentration; 360,000 tested, 0.2% active; C. neoformans lysis, adenylate kinase release luminescence, 4 h; normalised: neutral wells 0, clomiphene wells 100; lysis activity, % at 15 µM;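 active = mean lysis activity across replicates of at least 80%, whatever share of replicates individually reach that level; inactive = mean lysis activity below 80%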
#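 Assay system: Cryptococcus neoformans yeast cells / Dosing: single-point compound dose / Timing: 4 h at 37 °C static, read 1 h later / Measured by: luminescence of released adenylate kinase using an AK detection reagent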
# ERp5 block: inhibitors of ERp5-driven insulin aggregation, primary screen, biochemical, turbidity, absorbance 650 nm, single point | 90 min | inhibition, % at 9.99 µM | 350,000 tested, 0.05% active | AID 651711, 2012;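 active = mean replicate inhibition above about 25%, with every replicate also reaching it, limit read from the data, passing the limit was not always enough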
# Yeast UUG start-2: enhancers of UUG start codon usage in yeast, dose response, S. cerevisiae, UUG firefly luciferase, cherry-pick, set 2 | shares compounds with Yeast UUG start-1 | luminescence, 4 h; 100% means double the DMSO signal | activation, % at 38 µM | 540 tested, under 10 active | AID 652061, 2013;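 active = signal increase whose fitted curve reaches an absolute level of 40 at a concentration under 10 µM; inactive = activity opposite to the expected increase, or the rest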
# Numbers without * were called inactive; i = inactive; . = no result.
No.	Compound	PDI turbidity	Yeast UUG start-1	Cneo AK release
1	Cc1ccc(-c2ccc3c(c2)O[C@H](CN(C)C(=O)Nc2ccccc2)[C@H](C)CN([C@H](C)CO)S3(=O)=O)cc1	.	122*	3
2	CNC[C@H]1Oc2cc(C#Cc3ccc(F)cc3)ccc2S(=O)(=O)N([C@H](C)CO)C[C@@H]1C	.	0	7
3	CC(C)(C)Cc1c(-c2ccc(C#N)cc2)nc2ccc(Cl)cn12	7	165*	0
4	C=CCN1C(=O)C2C(C(=O)NCc3ccccc3)C3C=CC2(O3)C1C(=O)NC(C)(C)C (stereo unspecified)	7	533*	1
5	Cc1noc(C)c1NC(=O)Nc1ccc2c(c1)CC(=O)N([C@H](C)CO)C[C@H](C)[C@H](CN(C)C(=O)Nc1ccc(F)cc1)O2	.	9	-3
6	O=C(C[C@@H]1C=C[C@H](NC(=O)C2CCOCC2)[C@@H](CO)O1)Nc1ccccc1	.	.	.
7	CC(=O)Nc1ccc(OC(F)(F)C(F)F)c(NC(C)=O)c1	2	-1	2
8	C=C(C)C(=O)Nc1ccc(OC(F)(F)C(F)F)c(NC(=O)C(=C)C)c1	-1	635*	2

No.	ERp5 block	Yeast UUG start-2
1	1	i
2	.	.
3	-5	-6
4	.	-6
5	-7	.
6	6	.
7	5	.
8	.	-6

# (continued)
No.	Compound	PDI turbidity	Yeast UUG start-1	Cneo AK release
9	C[C@@H]1CN([C@@H](C)CO)C(=O)c2cccc(NS(C)(=O)=O)c2O[C@H]1CN(C)Cc1ccccc1	.	-1	1
10	Cc1ccc(NC(=O)/C(=C/c2cccc([N+](=O)[O-])c2)NC(=O)C2CCCCC2)cc1	-8	-15	3
11	Cc1ccc(NC(=O)/C(=C\c2cccc([N+](=O)[O-])c2)NC(=O)c2cccs2)cc1	-4	557*	0
12	COc1ccc(S(=O)(=O)Nc2ccc3c(c2)C(=O)N([C@@H](C)CO)C[C@@H](C)[C@H](CN(C)S(=O)(=O)c2ccc(OC)cc2)OCCCC[C@@H](C)O3)cc1	.	-12	-15
13	O=c1cc(CO)occ1OCc1ccccc1	-1	484*	4
14	CC1CN(Cc2c(O)ccc3c(=O)c(-c4ccccc4)coc23)CC(C)O1 (stereo unspecified)	-2	-2	-2
15	CC1CN(Cc2c(O)ccc3c2oc(=O)c2ccccc23)CC(C)O1 (stereo unspecified)	1	156*	8
16	C[C@@H]1CN([C@H](C)CO)C(=O)c2ccccc2-c2ccccc2CO[C@H]1CN(C)S(=O)(=O)c1ccccc1F	.	.	-2

No.	ERp5 block	Yeast UUG start-2
9	3	.
10	3	.
11	.	6
12	.	.
13	.	7
14	2	.
15	-10	15
16	2	.

# More records:
No.	Compound	PDI turbidity	Yeast UUG start-1	Cneo AK release
17	O=C1NC(Cc2c[nH]c3ccccc23)C(=O)N1Cc1ccccc1 (stereo unspecified)	3	-12	-1
18	N#Cc1ccccc1CN1C(=O)NC(Cc2c[nH]c3ccccc23)C1=O (stereo unspecified)	-3	588*	0
19	CCCNC(=O)[C@H]1[C@H](CO)[C@H]2Cn3c(ccc(C4=CCCC4)c3=O)[C@H]2N1CCC(F)(F)F	.	.	2
20	N#Cc1ccccc1OCc1cn(CC(=O)c2ccc(O)cc2)nn1	3	152*	-3
21	CCOc1cc(OCC)cc(C(=O)NC(=S)Nc2cccc(C(F)(F)F)c2)c1	-6	.	.
22	O=C(NC(=S)Nc1cccc(C(F)(F)F)c1)c1ccc2nonc2c1	-4	139*	3
23	O=C(CNC(=O)c1cccc(F)c1)OCC(=O)N1CCCCC1	9	.	.
24	O=C(CNC(=O)c1cccc(F)c1)OCC(=O)N1CCN(C(=O)c2ccco2)CC1	1	213*	-1

No.	ERp5 block	Yeast UUG start-2
17	1	.
18	3	10
19	2	.
20	-10	11
21	.	.
22	9	-8
23	.	.
24	0	-2

# Further results follow:
No.	Compound	PDI turbidity	Yeast UUG start-1	Cneo AK release
25	Cc1noc(C)c1S(=O)(=O)Nc1ccc2c(c1)C(=O)N([C@H](C)CO)C[C@@H](C)[C@H](CN(C)Cc1ccc(C(=O)O)cc1)O2	.	-10	-4
26	Cn1nc(CC(=O)Nc2ccc3c(c2)OCCO3)c2ccccc2c1=O	-3	.	.
27	Cn1nc(CC(=O)Nc2cccc(O)c2)c2ccccc2c1=O	.	.	.
28	Cn1c(C(=O)O)c(CC(=O)Nc2ccc3c(c2)OCCO3)c2ccccc21	-2	-47	-5
29	Cc1ccc(NC(=O)Cc2nn(C)c(=O)c3ccccc23)cc1F	-3	1	-2
30	Cn1nc(CC(=O)NCc2cccc3ccccc23)c2ccccc2c1=O	5	-16	-1
31	COc1ccc2c3c(n(C)c2c1)[C@@H](CO)N(C(=O)c1cnccn1)CC31CCN(C(=O)c2cnccn2)CC1	.	.	.
32	O=C1c2ccccc2[C@@]2(Cc3ccccc3N(CCN3CCOCC3)C2=O)[C@H](c2ccc(CO)cc2)N1Cc1ccccc1Cl	.	55	-2

No.	ERp5 block	Yeast UUG start-2
25	-1	.
26	.	-2
27	.	i
28	.	.
29	.	16
30	.	.
31	13	.
32	2	.

# A few values from the entries so far:
# Value for Cc1ccc(-c2ccc3c(c2)O[C@H](CN(C)C(=O)Nc2ccccc2)[C@H](C)CN([C@H](C)CO)S3(=O)=O)cc1 under ERp5 block: 1
# Value for CC(C)(C)Cc1c(-c2ccc(C#N)cc2)nc2ccc(Cl)cn12 under PDI turbidity: 7
# Value for CCOc1cc(OCC)cc(C(=O)NC(=S)Nc2cccc(C(F)(F)F)c2)c1 under PDI turbidity: -6
# Value for Cc1noc(C)c1NC(=O)Nc1ccc2c(c1)CC(=O)N([C@H](C)CO)C[C@H](C)[C@H](CN(C)C(=O)Nc1ccc(F)cc1)O2 under Cneo AK release: -3

# Carrying on:
No.	Compound	PDI turbidity	Yeast UUG start-1	Cneo AK release
33	COc1ccccc1CN1C(=O)c2ccccc2[C@@]2(Cc3ccccc3N(CCN3CCOCC3)C2=O)[C@@H]1c1ccc(CO)cc1	.	130*	20
34	CN(C)CCCN1C(=O)[C@@]2(Cc3ccccc31)c1ccccc1C(=O)N(Cc1ccccc1Cl)[C@H]2c1ccc(CO)cc1	.	202*	-19
35	Cc1occc1C(=O)Nc1ccccc1NC(=O)c1ccoc1C	5	198*	1
36	COc1cc(SC)ccc1C(=O)Nc1ccncc1	-8	.	.
37	COc1cc(SC)ccc1C(=O)Nc1ccccc1C#N	10	501*	3
38	CC1=C(C(=O)N(C)C)CC(CC(=O)NCCCN(C)C)C(=O)N1CCCN1CCCC1=O (stereo unspecified)	.	104*	2
39	CCN(CC)C(=O)C1=C(C)N(CCCN2CCCC2=O)C(=O)C(CC(=O)NCCc2ccccn2)C1 (stereo unspecified)	-6	-23	-1
40	CC1=C(C(=O)N(C(C)C)C(C)C)CC(CC(=O)NCCCN(C)C)C(=O)N1CCCN1CCCC1=O (stereo unspecified)	.	-7	-1

No.	ERp5 block	Yeast UUG start-2
33	5	i
34	-3	i
35	.	-2
36	0	.
37	.	4
38	4	7
39	11	.
40	-6	.

# (more compounds)
No.	Compound	PDI turbidity	Yeast UUG start-1	Cneo AK release
41	CC1=C(C(=O)N(C)C)CC(CC(=O)NCCc2ccccn2)C(=O)N1CCCN1CCCC1=O (stereo unspecified)	2	101*	1
42	C[C@H](CO)N1C[C@H](C)[C@@H](CN(C)C(=O)NC2CCCCC2)Oc2ccc(NS(=O)(=O)c3ccccc3)cc2CC1=O	.	6	-1
43	OC[C@@H]1[C@@H](c2ccccc2)C2(CN(Cc3nccs3)C2)N1Cc1cccnc1	.	.	.
44	CCOC(=O)Cn1nc(C)n(-c2ccc(Cl)cc2)c1=O	-2	.	.
45	CCOC(=O)Cn1nc(C)n(-c2cccc(Cl)c2)c1=O	5	223*	1
46	Cc1cccc(N2CCN(C(=O)Cn3nc(Cc4ccncc4)c4ccccc4c3=O)CC2)c1C	.	-13	-4
47	CCCN1[C@@H]2c3cccc(=O)n3C[C@H]1[C@H](CO)[C@H]2C(=O)N[C@@H](C)c1ccccc1	.	.	.
48	COCCSc1nnc(NC(=O)c2ccc3c(c2)OCO3)s1	-6	.	.

No.	ERp5 block	Yeast UUG start-2
41	-3	-6
42	0	.
43	-3	.
44	1	.
45	2	-3
46	1	5
47	8	.
48	-5	.

# Some of these compounds in order of SMILES length, smallest number first:
No.	Compound	PDI turbidity	Yeast UUG start-1	Cneo AK release
2	CNC[C@H]1Oc2cc(C#Cc3ccc(F)cc3)ccc2S(=O)(=O)N([C@H](C)CO)C[C@@H]1C	.	0	7
33	COc1ccccc1CN1C(=O)c2ccccc2[C@@]2(Cc3ccccc3N(CCN3CCOCC3)C2=O)[C@@H]1c1ccc(CO)cc1	.	130*	20
5	Cc1noc(C)c1NC(=O)Nc1ccc2c(c1)CC(=O)N([C@H](C)CO)C[C@H](C)[C@H](CN(C)C(=O)Nc1ccc(F)cc1)O2	.	9	-3

No.	ERp5 block	Yeast UUG start-2
2	.	.
33	5	i
5	-7	.

# Assay outcomes from PubChem.
